Results from article PMC7431030 (Nature, 2020).

Protein sequences, listed by entry. Tags and fused reporters are not part of them.
UniProt Q5BJF2, whole entry: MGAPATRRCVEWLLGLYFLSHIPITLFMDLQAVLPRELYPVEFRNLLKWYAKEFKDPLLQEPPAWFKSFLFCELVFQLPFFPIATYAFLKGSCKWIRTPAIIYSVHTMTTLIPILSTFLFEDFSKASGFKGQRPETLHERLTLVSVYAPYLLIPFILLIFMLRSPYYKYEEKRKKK

Target: SigmaR2 (Homo sapiens, UniProt Q5BJF2)
Experiment: Sigma2 receptor radioligand binding/displacement assay
Conditions: Fig. 6h, mean±SD

How did the “pKi SigmaR2” value turn out when `COc1cccc2c1CCCC2CCCN1CCN(C2CCCCC2)CC1` (stereo not shown) [PB28] was run?
Its value is 8.6±0.1.
